From patent US20150258192A1, “COMPOSITIONS AND METHODS FOR PREVENTING OR TREATING CHRONIC LUNG ALLOGRAFT DYSFUNCTION (CLAD) AND IDIOPATHIC PULMONARY FIBROSIS (IPF)” (priority 2014, published 2015)

Sequences of proteins named here, by UniProt entry; tags and fusion partners are left off. A change or cut given only in a name is not applied to a line headed by its entry. Residues count along the entry.
UniProt P50750, whole entry: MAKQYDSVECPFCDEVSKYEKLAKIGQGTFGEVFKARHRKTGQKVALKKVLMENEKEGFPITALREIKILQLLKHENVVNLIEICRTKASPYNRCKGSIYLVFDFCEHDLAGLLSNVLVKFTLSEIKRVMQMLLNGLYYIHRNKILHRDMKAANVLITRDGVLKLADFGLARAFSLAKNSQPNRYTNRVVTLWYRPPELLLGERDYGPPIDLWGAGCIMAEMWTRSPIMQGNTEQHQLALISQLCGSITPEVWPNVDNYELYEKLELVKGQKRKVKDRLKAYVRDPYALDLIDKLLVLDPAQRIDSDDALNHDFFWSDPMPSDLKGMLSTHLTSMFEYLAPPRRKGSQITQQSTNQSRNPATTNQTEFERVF
UniProt Q9Y243: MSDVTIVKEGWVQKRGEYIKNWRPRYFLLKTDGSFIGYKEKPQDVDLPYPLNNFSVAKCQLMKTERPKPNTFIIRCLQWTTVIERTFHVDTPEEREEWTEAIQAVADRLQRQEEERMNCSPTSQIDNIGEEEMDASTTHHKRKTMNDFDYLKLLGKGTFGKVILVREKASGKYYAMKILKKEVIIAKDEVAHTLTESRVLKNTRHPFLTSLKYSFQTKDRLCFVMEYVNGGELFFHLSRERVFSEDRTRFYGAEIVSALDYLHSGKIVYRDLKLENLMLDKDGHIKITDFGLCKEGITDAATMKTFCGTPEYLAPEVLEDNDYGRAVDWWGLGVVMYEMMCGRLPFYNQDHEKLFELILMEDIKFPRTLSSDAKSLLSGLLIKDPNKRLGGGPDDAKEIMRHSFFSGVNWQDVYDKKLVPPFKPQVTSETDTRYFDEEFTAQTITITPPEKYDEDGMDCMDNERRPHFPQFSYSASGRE
UniProt Q02156: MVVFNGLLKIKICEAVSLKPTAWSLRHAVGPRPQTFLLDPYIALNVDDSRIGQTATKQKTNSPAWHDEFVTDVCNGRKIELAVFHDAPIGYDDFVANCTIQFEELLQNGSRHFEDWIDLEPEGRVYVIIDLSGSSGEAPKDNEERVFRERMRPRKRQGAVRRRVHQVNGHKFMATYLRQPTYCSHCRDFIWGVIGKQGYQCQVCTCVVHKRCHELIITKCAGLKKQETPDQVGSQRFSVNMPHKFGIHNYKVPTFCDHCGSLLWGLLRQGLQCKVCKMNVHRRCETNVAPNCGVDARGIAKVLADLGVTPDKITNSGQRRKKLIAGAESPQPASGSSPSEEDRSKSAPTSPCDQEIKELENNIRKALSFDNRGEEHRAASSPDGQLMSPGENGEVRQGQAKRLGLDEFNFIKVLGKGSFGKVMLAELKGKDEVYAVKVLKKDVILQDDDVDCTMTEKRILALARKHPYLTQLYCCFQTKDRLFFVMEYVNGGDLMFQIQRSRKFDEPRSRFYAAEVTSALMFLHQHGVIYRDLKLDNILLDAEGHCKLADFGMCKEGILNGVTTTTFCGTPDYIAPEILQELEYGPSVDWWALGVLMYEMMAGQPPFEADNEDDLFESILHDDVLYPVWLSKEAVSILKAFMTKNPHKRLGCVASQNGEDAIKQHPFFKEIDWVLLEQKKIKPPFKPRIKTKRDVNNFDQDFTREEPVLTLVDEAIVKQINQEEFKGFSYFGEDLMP
UniProt Q13464: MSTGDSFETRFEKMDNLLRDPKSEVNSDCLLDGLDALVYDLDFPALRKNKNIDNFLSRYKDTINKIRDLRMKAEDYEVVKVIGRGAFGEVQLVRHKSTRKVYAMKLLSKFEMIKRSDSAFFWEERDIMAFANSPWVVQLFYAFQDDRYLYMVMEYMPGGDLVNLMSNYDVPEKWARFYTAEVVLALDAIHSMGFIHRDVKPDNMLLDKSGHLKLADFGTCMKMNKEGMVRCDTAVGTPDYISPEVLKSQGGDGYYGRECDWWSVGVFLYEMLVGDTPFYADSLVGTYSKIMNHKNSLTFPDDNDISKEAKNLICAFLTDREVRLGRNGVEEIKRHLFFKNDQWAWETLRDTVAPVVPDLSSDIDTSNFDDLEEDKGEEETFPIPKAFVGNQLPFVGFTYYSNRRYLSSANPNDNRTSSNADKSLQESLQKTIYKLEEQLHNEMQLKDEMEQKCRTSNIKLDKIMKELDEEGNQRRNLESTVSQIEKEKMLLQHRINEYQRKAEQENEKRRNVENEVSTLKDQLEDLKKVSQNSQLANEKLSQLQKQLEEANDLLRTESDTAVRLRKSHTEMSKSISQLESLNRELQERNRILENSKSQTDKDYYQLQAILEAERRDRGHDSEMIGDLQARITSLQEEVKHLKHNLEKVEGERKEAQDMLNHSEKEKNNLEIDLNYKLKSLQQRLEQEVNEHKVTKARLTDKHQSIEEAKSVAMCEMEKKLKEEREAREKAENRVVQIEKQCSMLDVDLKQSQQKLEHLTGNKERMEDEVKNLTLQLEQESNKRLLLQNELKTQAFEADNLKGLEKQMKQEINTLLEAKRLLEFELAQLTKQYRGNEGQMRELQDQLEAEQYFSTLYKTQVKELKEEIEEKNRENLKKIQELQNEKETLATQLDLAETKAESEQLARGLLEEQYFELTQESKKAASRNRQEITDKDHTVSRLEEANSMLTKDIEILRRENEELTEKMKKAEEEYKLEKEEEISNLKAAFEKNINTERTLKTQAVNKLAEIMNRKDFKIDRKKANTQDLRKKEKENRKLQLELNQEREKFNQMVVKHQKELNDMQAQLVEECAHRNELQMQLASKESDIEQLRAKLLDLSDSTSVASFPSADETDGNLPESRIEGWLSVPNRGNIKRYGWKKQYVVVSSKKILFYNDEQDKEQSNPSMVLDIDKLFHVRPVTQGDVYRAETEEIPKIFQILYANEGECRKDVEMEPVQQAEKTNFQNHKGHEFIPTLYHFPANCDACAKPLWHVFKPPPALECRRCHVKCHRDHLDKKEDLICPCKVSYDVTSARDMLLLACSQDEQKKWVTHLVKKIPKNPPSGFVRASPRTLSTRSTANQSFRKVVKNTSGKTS
UniProt Q15349, whole entry: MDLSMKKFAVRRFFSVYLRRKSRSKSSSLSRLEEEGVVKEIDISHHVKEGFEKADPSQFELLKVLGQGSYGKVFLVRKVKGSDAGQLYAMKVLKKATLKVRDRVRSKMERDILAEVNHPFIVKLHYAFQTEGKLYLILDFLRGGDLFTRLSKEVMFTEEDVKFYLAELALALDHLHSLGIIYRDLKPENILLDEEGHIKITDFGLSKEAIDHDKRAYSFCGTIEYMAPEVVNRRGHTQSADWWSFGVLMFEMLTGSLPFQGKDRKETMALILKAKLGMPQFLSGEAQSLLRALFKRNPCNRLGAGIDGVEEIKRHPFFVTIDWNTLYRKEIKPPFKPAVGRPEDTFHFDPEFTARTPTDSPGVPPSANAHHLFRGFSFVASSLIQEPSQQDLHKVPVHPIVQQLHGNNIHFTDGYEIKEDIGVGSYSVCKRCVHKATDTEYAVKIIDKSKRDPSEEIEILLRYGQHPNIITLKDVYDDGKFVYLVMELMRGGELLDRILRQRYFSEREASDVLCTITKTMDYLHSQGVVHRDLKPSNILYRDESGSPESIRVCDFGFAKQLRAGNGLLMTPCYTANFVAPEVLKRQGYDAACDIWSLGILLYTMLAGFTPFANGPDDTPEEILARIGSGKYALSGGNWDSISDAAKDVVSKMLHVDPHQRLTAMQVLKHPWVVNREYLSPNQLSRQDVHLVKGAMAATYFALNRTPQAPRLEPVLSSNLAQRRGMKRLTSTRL
UniProt Q9NYY3: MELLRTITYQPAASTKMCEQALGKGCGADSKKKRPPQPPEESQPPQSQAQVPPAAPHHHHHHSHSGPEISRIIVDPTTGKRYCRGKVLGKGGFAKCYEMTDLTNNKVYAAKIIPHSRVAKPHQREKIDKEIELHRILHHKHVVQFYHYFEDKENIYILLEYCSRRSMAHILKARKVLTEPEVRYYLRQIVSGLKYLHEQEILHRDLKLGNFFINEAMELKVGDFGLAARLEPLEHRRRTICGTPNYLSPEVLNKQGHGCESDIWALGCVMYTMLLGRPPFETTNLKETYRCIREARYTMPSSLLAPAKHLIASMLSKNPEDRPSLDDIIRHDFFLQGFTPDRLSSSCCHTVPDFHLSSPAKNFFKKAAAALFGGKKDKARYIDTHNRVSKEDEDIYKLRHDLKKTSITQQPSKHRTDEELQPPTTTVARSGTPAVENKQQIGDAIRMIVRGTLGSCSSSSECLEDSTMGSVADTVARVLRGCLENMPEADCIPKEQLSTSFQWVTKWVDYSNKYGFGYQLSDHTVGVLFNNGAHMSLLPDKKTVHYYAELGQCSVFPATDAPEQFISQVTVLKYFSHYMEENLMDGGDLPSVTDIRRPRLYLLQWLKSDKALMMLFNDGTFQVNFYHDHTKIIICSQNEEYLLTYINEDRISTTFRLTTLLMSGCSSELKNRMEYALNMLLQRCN
UniProt Q9H2X6: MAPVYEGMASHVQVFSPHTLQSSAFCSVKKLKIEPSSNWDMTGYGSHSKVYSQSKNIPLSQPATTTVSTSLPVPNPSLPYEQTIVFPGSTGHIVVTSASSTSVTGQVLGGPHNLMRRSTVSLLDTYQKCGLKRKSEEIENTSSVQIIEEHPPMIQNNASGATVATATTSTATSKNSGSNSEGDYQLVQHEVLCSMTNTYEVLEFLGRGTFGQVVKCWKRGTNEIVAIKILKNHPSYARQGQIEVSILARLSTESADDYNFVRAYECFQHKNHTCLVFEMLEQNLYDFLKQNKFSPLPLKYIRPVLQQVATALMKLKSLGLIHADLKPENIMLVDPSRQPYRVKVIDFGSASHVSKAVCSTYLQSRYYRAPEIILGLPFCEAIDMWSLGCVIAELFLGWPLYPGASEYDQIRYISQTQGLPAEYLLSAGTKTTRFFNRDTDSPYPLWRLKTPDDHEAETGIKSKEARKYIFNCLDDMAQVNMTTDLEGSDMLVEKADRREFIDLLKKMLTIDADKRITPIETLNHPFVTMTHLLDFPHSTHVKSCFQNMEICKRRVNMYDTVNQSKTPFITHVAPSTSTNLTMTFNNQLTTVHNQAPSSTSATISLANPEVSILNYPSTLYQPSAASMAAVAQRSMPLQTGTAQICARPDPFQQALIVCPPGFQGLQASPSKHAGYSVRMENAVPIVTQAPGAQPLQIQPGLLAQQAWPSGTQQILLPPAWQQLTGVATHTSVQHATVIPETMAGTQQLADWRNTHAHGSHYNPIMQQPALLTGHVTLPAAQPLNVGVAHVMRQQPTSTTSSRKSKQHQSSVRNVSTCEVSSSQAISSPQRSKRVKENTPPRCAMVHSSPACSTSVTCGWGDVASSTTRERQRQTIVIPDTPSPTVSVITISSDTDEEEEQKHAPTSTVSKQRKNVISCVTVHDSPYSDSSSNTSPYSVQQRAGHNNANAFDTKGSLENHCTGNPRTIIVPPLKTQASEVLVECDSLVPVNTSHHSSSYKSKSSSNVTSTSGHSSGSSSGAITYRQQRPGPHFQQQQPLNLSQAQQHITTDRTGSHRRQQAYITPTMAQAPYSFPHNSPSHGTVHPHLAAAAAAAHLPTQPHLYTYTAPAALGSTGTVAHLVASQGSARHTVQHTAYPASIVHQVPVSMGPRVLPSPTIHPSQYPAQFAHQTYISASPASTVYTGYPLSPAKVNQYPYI
UniProt P06213, 1005-1310 limits assumed: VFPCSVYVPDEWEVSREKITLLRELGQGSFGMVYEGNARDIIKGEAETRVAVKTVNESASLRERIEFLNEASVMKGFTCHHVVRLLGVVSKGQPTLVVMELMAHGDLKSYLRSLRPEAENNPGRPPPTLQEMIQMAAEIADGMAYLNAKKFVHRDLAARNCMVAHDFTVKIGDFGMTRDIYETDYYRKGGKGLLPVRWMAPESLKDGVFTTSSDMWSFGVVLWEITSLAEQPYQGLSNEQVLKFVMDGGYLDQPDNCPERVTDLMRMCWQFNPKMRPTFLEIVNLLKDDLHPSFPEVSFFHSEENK

Assays:
Test in all cases: Kinase Profiling Assay
Assay type in all cases: biochemical
Conditions in all cases: peptide 100 μM
[1] = target: T1, Aurora-A(h) (Homo sapiens, UniProt O14965)
T1 sequence (O14965 1-403): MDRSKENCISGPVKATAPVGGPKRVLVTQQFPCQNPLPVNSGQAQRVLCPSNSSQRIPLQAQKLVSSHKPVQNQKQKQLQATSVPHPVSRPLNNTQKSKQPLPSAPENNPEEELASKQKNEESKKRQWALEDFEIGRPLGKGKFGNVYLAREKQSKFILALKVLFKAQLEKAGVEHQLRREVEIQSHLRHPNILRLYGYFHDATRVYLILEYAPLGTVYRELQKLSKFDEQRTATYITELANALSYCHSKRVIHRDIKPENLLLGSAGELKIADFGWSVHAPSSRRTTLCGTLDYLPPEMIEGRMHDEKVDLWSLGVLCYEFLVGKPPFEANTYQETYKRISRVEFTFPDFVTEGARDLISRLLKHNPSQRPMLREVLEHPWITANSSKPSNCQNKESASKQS
Method in brief: (§1)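 Kinase inhibition by MK2 inhibitory peptides was profiled radiometrically, with substrate phosphorylation from labeled ATP read by scintillation after capture on a charged filter. Values are relative to 100% activity and measured in duplicate.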

[2] = target: CDK9/cyclin T1(h) (Homo sapiens, UniProt P50750)
Method in brief: as §1

[3] = target: T2, EphA3(h) (Homo sapiens, UniProt P29320)
T2 sequence (P29320 21-983): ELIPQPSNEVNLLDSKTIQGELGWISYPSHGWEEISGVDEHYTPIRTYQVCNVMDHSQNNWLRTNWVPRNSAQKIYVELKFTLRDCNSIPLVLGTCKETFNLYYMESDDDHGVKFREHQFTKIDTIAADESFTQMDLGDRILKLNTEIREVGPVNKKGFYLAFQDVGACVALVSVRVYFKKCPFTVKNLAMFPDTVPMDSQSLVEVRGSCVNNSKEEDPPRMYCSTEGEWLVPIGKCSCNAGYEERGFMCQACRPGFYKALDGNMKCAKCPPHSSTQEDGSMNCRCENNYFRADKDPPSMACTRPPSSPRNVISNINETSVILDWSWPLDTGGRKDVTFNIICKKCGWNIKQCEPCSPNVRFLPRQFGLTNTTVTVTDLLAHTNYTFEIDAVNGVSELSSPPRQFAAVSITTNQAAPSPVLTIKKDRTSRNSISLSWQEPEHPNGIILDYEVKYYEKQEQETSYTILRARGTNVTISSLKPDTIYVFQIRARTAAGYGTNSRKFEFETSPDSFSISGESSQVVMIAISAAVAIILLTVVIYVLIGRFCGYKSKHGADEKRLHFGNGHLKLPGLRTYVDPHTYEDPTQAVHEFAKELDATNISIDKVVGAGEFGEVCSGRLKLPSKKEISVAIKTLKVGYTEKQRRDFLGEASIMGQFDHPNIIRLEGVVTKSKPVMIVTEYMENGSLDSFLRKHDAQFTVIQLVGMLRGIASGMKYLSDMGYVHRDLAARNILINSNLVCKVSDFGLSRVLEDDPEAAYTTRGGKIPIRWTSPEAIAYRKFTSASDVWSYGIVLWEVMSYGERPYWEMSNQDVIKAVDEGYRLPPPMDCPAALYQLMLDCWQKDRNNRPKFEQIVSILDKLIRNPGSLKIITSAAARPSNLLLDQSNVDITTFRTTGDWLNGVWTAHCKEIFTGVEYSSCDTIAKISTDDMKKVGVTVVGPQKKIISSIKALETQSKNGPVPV
Method in brief: as §1

[4] = target: T3, JNK2α2(h) (Homo sapiens, UniProt P45984)
T3 construct: purchased Millipore
Method in brief: as §1

[5] = target: PKBγ(h) (Homo sapiens, UniProt Q9Y243)
Method in brief: as §1

[6] = target: PKCε(h) (Homo sapiens, UniProt Q02156)
Method in brief: as §1

[7] = target: ROCK-I(h) (Homo sapiens, UniProt Q13464)
Method in brief: as §1

[8] = target: Ros(h) (Homo sapiens, UniProt P08922)
Method in brief: as §1

[9] = target: T4, Rsk3(h) (Homo sapiens, UniProt Q15349)
T4 construct: purchased Millipore
Method in brief: as §1

[10] = target: T5, Snk(h) (Homo sapiens, UniProt Q9NYY3)
T5 construct: purchased Millipore
Method in brief: as §1

[11] = target: T6, HIPK2(h) (Homo sapiens, UniProt Q9H2X6)
T6 construct: purchased Millipore
Method in brief: as §1

[12] = target: T7, IR(h), activated (Homo sapiens, UniProt P06213)
T7 construct: purchased Millipore
Method in brief: as §1

Compound	% activity [1] [%]	% activity [2] [%]	% activity [3] [%]	% activity [4] [%]	% activity [5] [%]	% activity [6] [%]	% activity [7] [%]	% activity [8] [%]	% activity [9] [%]	% activity [10] [%]	% activity [11] [%]	% activity [12] [%]
CC(C)C[C@H](NC(=O)[C@H](C)NC(=O)[C@H](CCCCN)NC(=O)[C@H](C)NC(=O)[C@H](CCCNC(=N)N)NC(=O)[C@H](C)NC(=O)[C@H](CCC(N)=O)NC(=O)[C@H](CCCNC(=N)N)NC(=O)[C@H](C)NC(=O)[C@H](C)NC(=O)[C@H](C)NC(=O)[C@H](CCCNC(=N)N)NC(=O)[C@H](C)NC(=O)[C@@H](N)Cc1ccc(O)cc1)C(=O)N[C@@H](C)C(=O)N[C@@H](CCCNC(=N)N)C(=O)N[C@@H](CCC(N)=O)C(=O)N[C@@H](CC(C)C)C(=O)NCC(=O)N[C@H](C(=O)N[C@@H](C)C(=O)N[C@@H](C)C(=O)O)C(C)C [MMI-0100]	120	228	107	114	105	102	99	107	76	–	–	–
FAKLAARLYRKALARQLGVAA [MMI-0300]	–	–	–	–	–	–	–	–	–	114	–	–
YARAAARQARAKALNRQLGVA (Mammal) [MMI-0200]	107	103	117	109	103	–	117	–	109	109	102	105
